Measured values published in ChEMBL document CHEMBL3817845, “Development of CNS multi-receptor ligands: Modification of known D2 pharmacophores” (Bioorg Med Chem, 2016).

The chains behind the UniProt entries cited, without tags or fusion partners.
UniProt P41595, whole entry: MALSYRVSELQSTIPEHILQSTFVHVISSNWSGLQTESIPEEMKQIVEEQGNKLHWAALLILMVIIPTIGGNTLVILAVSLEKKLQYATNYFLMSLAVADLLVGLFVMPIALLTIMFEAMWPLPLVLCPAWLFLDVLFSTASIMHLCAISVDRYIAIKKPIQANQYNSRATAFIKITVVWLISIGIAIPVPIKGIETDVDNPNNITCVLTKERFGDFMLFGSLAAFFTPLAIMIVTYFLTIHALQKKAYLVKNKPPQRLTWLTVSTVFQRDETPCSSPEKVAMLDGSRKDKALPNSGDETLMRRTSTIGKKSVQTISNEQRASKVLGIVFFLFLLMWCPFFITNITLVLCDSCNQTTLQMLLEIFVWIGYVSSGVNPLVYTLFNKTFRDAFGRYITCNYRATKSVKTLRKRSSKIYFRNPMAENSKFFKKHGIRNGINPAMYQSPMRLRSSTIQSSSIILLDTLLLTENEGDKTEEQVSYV
UniProt P21917, whole entry: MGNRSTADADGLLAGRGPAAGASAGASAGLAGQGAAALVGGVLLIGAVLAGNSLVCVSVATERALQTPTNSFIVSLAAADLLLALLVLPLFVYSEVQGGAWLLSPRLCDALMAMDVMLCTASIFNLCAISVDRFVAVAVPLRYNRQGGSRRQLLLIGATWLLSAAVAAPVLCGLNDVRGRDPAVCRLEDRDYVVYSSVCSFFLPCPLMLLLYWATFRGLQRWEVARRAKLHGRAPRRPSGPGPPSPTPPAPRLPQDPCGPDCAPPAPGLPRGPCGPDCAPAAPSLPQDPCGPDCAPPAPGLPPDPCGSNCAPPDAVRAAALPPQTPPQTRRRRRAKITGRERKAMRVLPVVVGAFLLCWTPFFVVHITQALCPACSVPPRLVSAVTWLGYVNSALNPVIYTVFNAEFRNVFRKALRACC
UniProt P34969, whole entry: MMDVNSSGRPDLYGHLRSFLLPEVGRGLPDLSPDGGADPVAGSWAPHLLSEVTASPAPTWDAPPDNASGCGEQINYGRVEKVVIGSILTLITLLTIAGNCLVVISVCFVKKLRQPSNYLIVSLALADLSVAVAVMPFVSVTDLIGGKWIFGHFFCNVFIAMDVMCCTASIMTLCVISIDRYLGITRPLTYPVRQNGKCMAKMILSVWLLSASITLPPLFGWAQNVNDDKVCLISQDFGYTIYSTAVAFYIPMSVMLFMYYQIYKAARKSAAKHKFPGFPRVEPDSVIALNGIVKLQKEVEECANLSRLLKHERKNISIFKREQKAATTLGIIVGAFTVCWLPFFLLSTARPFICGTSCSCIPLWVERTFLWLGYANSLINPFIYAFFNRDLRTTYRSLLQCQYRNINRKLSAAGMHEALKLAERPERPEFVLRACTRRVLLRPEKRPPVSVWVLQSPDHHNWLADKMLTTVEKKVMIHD
UniProt P35462, whole entry: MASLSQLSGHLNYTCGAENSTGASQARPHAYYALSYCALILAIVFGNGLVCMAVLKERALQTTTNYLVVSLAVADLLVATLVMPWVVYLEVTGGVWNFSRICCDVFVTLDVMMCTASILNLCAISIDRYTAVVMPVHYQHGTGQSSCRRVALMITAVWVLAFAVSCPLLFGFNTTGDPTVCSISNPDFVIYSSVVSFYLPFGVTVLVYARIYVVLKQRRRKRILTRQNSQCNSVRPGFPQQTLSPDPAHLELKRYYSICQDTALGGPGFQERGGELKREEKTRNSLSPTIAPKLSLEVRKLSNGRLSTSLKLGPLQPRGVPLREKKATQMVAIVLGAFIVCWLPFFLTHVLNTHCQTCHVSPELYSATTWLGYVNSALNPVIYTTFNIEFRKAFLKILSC
UniProt P14416, whole entry: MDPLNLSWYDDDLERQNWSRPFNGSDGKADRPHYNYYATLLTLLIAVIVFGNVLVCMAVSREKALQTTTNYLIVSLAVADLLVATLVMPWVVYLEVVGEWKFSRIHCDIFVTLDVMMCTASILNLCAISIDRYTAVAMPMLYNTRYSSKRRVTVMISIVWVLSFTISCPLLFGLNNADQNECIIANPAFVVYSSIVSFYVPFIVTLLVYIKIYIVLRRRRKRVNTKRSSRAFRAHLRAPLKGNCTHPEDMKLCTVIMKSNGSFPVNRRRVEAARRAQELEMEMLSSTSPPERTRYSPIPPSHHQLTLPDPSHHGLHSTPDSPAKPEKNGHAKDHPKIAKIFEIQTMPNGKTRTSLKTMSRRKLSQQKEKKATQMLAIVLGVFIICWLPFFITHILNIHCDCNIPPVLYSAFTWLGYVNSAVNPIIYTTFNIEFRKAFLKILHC

Tests used:
[1] = biological target: 5-hydroxytryptamine receptor 2B (Homo sapiens, UniProt P41595); assay: Displacement of [3H]LSD from human recombinant 5HT2B receptor incubated for […] by microbeta scintillation counting method
D(4) dopamine receptor = D(4) dopamine receptor (Homo sapiens, UniProt P21917); assay: Displacement of [3H]N-methylspiperone from human recombinant dopamine D4 receptor incubated for […] by microbeta scintillation counting method
[2] = biological target: 5-hydroxytryptamine receptor 7 (Homo sapiens, UniProt P34969); assay: Displacement of [3H]LSD from human recombinant 5HT7 receptor incubated for […] by microbeta scintillation counting method
D(3) dopamine receptor = D(3) dopamine receptor (Homo sapiens, UniProt P35462); assay: Displacement of [3H]N-methylspiperone from human recombinant dopamine D3 receptor incubated for […] by microbeta scintillation counting method
D(2) dopamine receptor = D(2) dopamine receptor (Homo sapiens, UniProt P14416); assay: Displacement of [3H]N-methylspiperone from human recombinant dopamine D2 receptor incubated for […] by microbeta scintillation counting method

O=C(CCCCN1CCC2(CC1)C(=O)NCN2c1ccccc1)c1nc2ccccc2s1
Ki [1]: 1580 nM

O=C1NCN(c2ccccc2)C12CCN(CCCCc1nc3cc(Cl)ccc3s1)CC2
Ki (D(4) dopamine receptor): 1510 nM | Ki [2]: 1600 nM

Cl.O=C(CCCCN1C2CCC1CC(O)(c1ccc(Cl)cc1)C2)c1nc2ccccc2s1 (stereo not drawn)
Ki (D(3) dopamine receptor; read-out: Ki): 16 nM | Ki (D(3) dopamine receptor; read-out: pKi (converted)): 16.2 nM

OC1(c2ccc(Cl)cc2)CC2CCC(C1)N2CCCCc1nc2ccccc2s1 (stereo not drawn)
Ki (D(2) dopamine receptor; read-out: Ki): 44 nM | Ki (D(2) dopamine receptor; read-out: pKi (converted)): 44.7 nM | Ki (D(3) dopamine receptor; read-out: Ki): 13 nM
